What was measured:
[1] = target: melanocortin 1 receptor (MC1R) (Homo sapiens, UniProt Q01726); assay: cAMP accumulation assay (HTRF), agonist and/or antagonist activity at MC1R (Example 1, Table 11); details: dose-response, cAMP
[2] = target: melanocortin 5 receptor (MC5R) (Homo sapiens, UniProt P33032); assay: cAMP accumulation assay (HTRF), agonist and/or antagonist activity at MC5R (Example 1, Table 14); details: dose-response against MC5R
[3] = target: human melanocortin 3 receptor (MC3R) (Homo sapiens, UniProt P41968); assay: cAMP accumulation assay (HTRF), antagonist and/or agonist activity at MC3R (Example 1, Table 12, FIGS. 1-4); details: MC3R, antagonist activity, dose-response, cAMP
[4] = target: human melanocortin 4 receptor (MC4R) (Homo sapiens, UniProt P32245); assay: cAMP accumulation assay (HTRF), antagonist and/or agonist activity at MC4R (Example 1, Table 13, FIGS. 5-8); details: Table 13; dose-response against MC4R; cAMP

Protein sequences, listed by entry. Tags and fused reporters are not part of them.
UniProt Q01726, whole entry: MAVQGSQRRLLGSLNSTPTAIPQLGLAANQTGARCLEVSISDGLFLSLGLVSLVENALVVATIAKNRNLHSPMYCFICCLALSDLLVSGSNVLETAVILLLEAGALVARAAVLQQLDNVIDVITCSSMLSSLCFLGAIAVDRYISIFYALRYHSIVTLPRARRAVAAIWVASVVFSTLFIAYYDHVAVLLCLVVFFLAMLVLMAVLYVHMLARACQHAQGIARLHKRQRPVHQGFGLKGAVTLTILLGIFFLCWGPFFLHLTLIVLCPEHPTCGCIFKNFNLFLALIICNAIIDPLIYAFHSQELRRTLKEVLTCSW
UniProt P33032, whole entry: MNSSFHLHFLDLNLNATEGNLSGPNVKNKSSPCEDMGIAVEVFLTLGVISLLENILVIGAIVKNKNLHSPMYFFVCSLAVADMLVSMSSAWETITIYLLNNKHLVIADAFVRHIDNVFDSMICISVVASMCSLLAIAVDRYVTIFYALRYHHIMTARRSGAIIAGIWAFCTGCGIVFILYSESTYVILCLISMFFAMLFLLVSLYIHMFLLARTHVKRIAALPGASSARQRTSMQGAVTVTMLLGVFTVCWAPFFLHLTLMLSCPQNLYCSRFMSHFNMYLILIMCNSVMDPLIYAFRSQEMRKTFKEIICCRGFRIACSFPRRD
UniProt P41968, whole entry: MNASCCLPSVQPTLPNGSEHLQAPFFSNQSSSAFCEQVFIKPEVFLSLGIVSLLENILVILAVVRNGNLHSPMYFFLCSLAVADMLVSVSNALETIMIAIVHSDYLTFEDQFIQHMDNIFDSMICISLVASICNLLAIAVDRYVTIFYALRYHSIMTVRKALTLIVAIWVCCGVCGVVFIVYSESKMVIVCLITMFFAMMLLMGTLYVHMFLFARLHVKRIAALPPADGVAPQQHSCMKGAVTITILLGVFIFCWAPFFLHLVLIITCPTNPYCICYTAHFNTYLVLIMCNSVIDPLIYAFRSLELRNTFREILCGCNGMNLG
UniProt P32245, whole entry: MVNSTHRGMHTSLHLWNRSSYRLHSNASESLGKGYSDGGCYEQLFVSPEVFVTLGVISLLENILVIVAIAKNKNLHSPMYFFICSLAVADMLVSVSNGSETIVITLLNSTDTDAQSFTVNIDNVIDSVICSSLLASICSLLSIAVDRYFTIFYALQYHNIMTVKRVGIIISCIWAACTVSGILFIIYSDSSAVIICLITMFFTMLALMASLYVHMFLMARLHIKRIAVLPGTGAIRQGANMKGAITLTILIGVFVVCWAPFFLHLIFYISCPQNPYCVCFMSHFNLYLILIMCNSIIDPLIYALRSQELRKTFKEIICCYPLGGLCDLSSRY

| SMILES | EC50 [1] [nM] | EC50 [2] [nM] | IC50 [3] [nM] | IC50 [4] [nM] |
| --- | --- | --- | --- | --- |
| CC(=O)N[C@@H](C(=O)N[C@H]1CC(=O)NCCCC[C@@H](C(=O)N[C@@H](C(=O)N2CCC[C@@H]2C(N)=O)C(C)C)NC(=O)[C@H](Cc2c[nH]c3ccccc23)NC(=O)[C@H](CCCNC(=N)N)NC(=O)[C@@H](Cc2ccc3ccccc3c2)NC(=O)[C@@H]2CCCN2C1=O)C(C)(C)C | > 1000 | 3.9 |  |  |
| CC(=O)N[C@H](Cc1ccc(O)cc1)C(=O)N[C@H]1CC(=O)NCCCC[C@@H](C(=O)N[C@@H](C(=O)N2CCC[C@@H]2C(N)=O)C(C)C)NC(=O)[C@H](Cc2c[nH]c3ccccc23)NC(=O)[C@H](CCCNC(=N)N)NC(=O)[C@@H](Cc2ccc3ccccc3c2)NC(=O)[C@@H]2CCCN2C1=O | > 1000 | 16 |  |  |
| CCCC[C@H](NC(C)=O)C(=O)N[C@H]1CC(=O)NCCCC[C@@H](C(=O)N[C@@H](C(=O)N2CCC[C@@H]2C(N)=O)C(C)C)NC(=O)[C@H](Cc2c[nH]c3ccccc23)NC(=O)[C@H](CCC(=O)O)NC(=O)[C@@H](Cc2ccc3ccccc3c2)NC(=O)[C@@H]2CCCN2C1=O |  | > 1000 |  |  |
| CCCC[C@H](NC(C)=O)C(=O)N[C@H]1CC(=O)NCCCC[C@@H](C(=O)N[C@H](CCCCN)C(=O)N2CCC[C@@H]2C(=O)N[C@@H](C(N)=O)C(C)C)NC(=O)[C@H](Cc2c[nH]c3ccccc23)NC(=O)[C@H](CCCNC(=N)N)NC(=O)[C@@H](Cc2ccc3ccccc3c2)NC(=O)[C@@H]2CCCN2C1=O |  | 0.14 |  |  |
| CCCC[C@H](NC(C)=O)C(=O)N[C@H]1CC(=O)NCCCC[C@@H](C(=O)N[C@@H](C(=O)N2CCC[C@@H]2C(N)=O)C(C)C)NC(=O)[C@H](Cc2c[nH]c3ccccc23)NC(=O)CNC(=O)[C@@H](Cc2ccc3ccccc3c2)NC(=O)[C@@H]2CCCN2C1=O |  | > 1000 |  |  |
| CCCC[C@H](NC(C)=O)C(=O)N[C@H]1CC(=O)NCCCC[C@@H](C(=O)N[C@@H](CCCCN)C(=O)N[C@H](C(=O)N2CCC[C@H]2C(N)=O)C(C)C)NC(=O)[C@H](Cc2c[nH]c3ccccc23)NC(=O)[C@H](CCCNC(=N)N)NC(=O)[C@@H](Cc2ccc3ccccc3c2)NC(=O)[C@@H]2CCCN2C1=O | 0.82 |  | 0.43 | 5.9 |
| CCCC[C@H](NC(C)=O)C(=O)N[C@H]1CC(=O)NCCCC[C@@H](C(=O)N[C@@H](C)C(=O)N[C@@H](C)C(N)=O)NC(=O)[C@H](Cc2c[nH]c3ccccc23)NC(=O)[C@H](CCCNC(=N)N)NC(=O)[C@@H](Cc2ccc3ccccc3c2)NC(=O)[C@@H]2CCCN2C1=O | 3.3 |  | 2.15 | 58 |
| CCCC[C@H](NC(C)=O)C(=O)N[C@H]1CC(=O)NCCCC[C@@H](C(=O)N[C@@H](CCCNC(=N)N)C(=O)N2CCC[C@@H]2C(=O)N[C@@H](C(N)=O)C(C)C)NC(=O)[C@H](Cc2c[nH]c3ccccc23)NC(=O)[C@H](CCCNC(=N)N)NC(=O)[C@@H](Cc2ccc3ccccc3c2)NC(=O)[C@@H]2CCCN2C1=O | 7.6 |  | 2.1 | 32 |
| CCCC[C@H](NC(C)=O)C(=O)N[C@H]1CC(=O)NCCCC[C@@H](C(=O)N[C@@H](C(=O)N2CCC[C@@H]2C(N)=O)C(C)C)NC(=O)[C@H](Cc2c[nH]c3ccccc23)NC(=O)[C@H](CCCNC(=N)N)NC(=O)[C@@H](Cc2ccc3ccccc3c2)NC(=O)c2cccc(c2)CNC1=O | > 1000 |  | > 1000 | > 1000 |
| CCCC[C@H](NC(C)=O)C(=O)N[C@H]1CC(=O)NCCCC[C@@H](C(=O)N[C@@H](C(=O)N[C@@H](C(N)=O)C(C)C)C(C)C)NC(=O)[C@H](Cc2c[nH]c3ccccc23)NC(=O)[C@H](CCCNC(=N)N)NC(=O)[C@@H](Cc2ccc3ccccc3c2)NC(=O)[C@@H]2CCCN2C1=O | 70 |  | 3.72 | 21 |
| CCCC[C@H](NC(C)=O)C(=O)N[C@H]1CC(=O)NCCCC[C@@H](C(=O)N[C@H](C)C(=O)N[C@H](C)C(N)=O)NC(=O)[C@H](Cc2c[nH]c3ccccc23)NC(=O)[C@H](CCCNC(=N)N)NC(=O)[C@@H](Cc2ccc3ccccc3c2)NC(=O)[C@@H]2CCCN2C1=O | 25 |  | 3.54 | 11 |
| CCCC[C@H](NC(C)=O)C(=O)N[C@H]1CC(=O)NCCCC[C@@H](C(=O)N[C@H](CCCNC(=N)N)C(=O)N2CCC[C@@H]2C(N)=O)NC(=O)[C@H](Cc2c[nH]c3ccccc23)NC(=O)[C@H](CCCNC(=N)N)NC(=O)[C@@H](Cc2ccc3ccccc3c2)NC(=O)[C@@H]2CCCN2C1=O | 0.19 |  | 0.45 | 0.95 |
| CCCC[C@H](NC(C)=O)C(=O)N[C@H]1CC(=O)NCCCC[C@@H](C(=O)N[C@@H](CCCNC(=N)N)C(=O)N[C@H](C(=O)N2CCC[C@H]2C(N)=O)C(C)C)NC(=O)[C@H](Cc2c[nH]c3ccccc23)NC(=O)[C@H](CCCNC(=N)N)NC(=O)[C@@H](Cc2ccc3ccccc3c2)NC(=O)[C@@H]2CCCN2C1=O | 16 |  | 2.03 | 55 |
| CCCC[C@H](NC(C)=O)C(=O)N[C@H]1CC(=O)NCCCC[C@@H](C(=O)N[C@@H](C(=O)N2CCC[C@@H]2C(N)=O)C(C)C)NC(=O)[C@H](Cc2c[nH]c3ccccc23)NC(=O)[C@@H](Cc2ccc3ccccc3c2)NC(=O)[C@@H]2CCCN2C1=O |  | > 1000 |  |  |
| CCCC[C@H](NC(C)=O)C(=O)N[C@H]1CC(=O)NCCCC[C@@H](C(=O)N[C@@H](CCCNC(=N)N)C(N)=O)NC(=O)[C@H](Cc2c[nH]c3ccccc23)NC(=O)[C@H](CCCNC(=N)N)NC(=O)[C@@H](Cc2ccc3ccccc3c2)NC(=O)[C@@H]2CCCN2C1=O | 0.33 |  | 0.54 | 11 |
| CCCC[C@H](NC(C)=O)C(=O)N[C@H]1CC(=O)NCCCC[C@@H](C(=O)N[C@H](CCCNC(=N)N)C(=O)N[C@@H](C(=O)N2CCC[C@@H]2C(N)=O)C(C)C)NC(=O)[C@H](Cc2c[nH]c3ccccc23)NC(=O)[C@H](CCCNC(=N)N)NC(=O)[C@@H](Cc2ccc3ccccc3c2)NC(=O)[C@@H]2CCCN2C1=O | 7 |  | 2.06 | 13 |
| CCCC[C@H](NC(C)=O)C(=O)N[C@H]1CC(=O)NCCCC[C@@H](C(=O)N[C@@H](CCCNC(=N)N)C(=O)N2CCC[C@H]2C(=O)N[C@H](C(N)=O)C(C)C)NC(=O)[C@H](Cc2c[nH]c3ccccc23)NC(=O)[C@H](CCCNC(=N)N)NC(=O)[C@@H](Cc2ccc3ccccc3c2)NC(=O)[C@@H]2CCCN2C1=O | 0.28 |  | 0.68 | 15 |

Next, values leading:

| EC50 [1] [nM] | EC50 [2] [nM] | IC50 [3] [nM] | IC50 [4] [nM] | SMILES |
| --- | --- | --- | --- | --- |
| 12 | 0.51 |  |  | CC(=O)N[C@H](CC(C)C)C(=O)N[C@H]1CC(=O)NCCCC[C@@H](C(=O)N[C@@H](C(=O)N2CCC[C@@H]2C(N)=O)C(C)C)NC(=O)[C@H](Cc2c[nH]c3ccccc23)NC(=O)[C@H](CCCNC(=N)N)NC(=O)[C@@H](Cc2ccc3ccccc3c2)NC(=O)[C@@H]2CCCN2C1=O |
| 33 | 15 |  |  | CCCC[C@H](NC(C)=O)C(=O)N[C@@H]1C(=O)N2CCC[C@H]2C(=O)N[C@H](Cc2ccc3ccccc3c2)C(=O)N[C@@H](CCCNC(=N)N)C(=O)N[C@@H](Cc2c[nH]c3ccccc23)C(=O)N[C@H](C(=O)N[C@@H](C(=O)N2CCC[C@@H]2C(N)=O)C(C)C)C(C)(C)SSC1(C)C |
| > 1000 | > 1000 |  |  | CCCC[C@H](NC(C)=O)C(=O)N[C@@H]1C(=O)N2CCC[C@H]2C(=O)N[C@H](Cc2ccc3ccccc3c2)C(=O)N[C@@H](CCCNC(=N)N)C(=O)N[C@@H](Cc2c[nH]c3ccccc23)C(=O)N[C@@H](C(=O)N[C@@H](C(=O)N2CCC[C@@H]2C(N)=O)C(C)C)C(C)(C)SSC1(C)C |
| > 1000 | 29 |  |  | CC(=O)N[C@H](C)C(=O)N[C@H]1CC(=O)NCCCC[C@@H](C(=O)N[C@@H](C(=O)N2CCC[C@@H]2C(N)=O)C(C)C)NC(=O)[C@H](Cc2c[nH]c3ccccc23)NC(=O)[C@H](CCCNC(=N)N)NC(=O)[C@@H](Cc2ccc3ccccc3c2)NC(=O)[C@@H]2CCCN2C1=O |
| 4.1 | 0.51 |  |  | CCCC[C@H](NC(C)=O)C(=O)N[C@@H]1CSSC[C@H](C(=O)N[C@@H](C(=O)N2CCC[C@@H]2C(N)=O)C(C)C)NC(=O)[C@H](Cc2c[nH]c3ccccc23)NC(=O)[C@H](CCCNC(=N)N)NC(=O)[C@@H](Cc2ccc3ccccc3c2)NC(=O)[C@@H]2CCCN2C1=O |
| > 1000 | 8.8 |  |  | CC(=O)N[C@@H](C)C(=O)N[C@H]1CC(=O)NCCCC[C@@H](C(=O)N[C@@H](C(=O)N2CCC[C@@H]2C(N)=O)C(C)C)NC(=O)[C@H](Cc2c[nH]c3ccccc23)NC(=O)[C@H](CCCNC(=N)N)NC(=O)[C@@H](Cc2ccc3ccccc3c2)NC(=O)[C@@H]2CCCN2C1=O |
| 13 | 1.9 |  |  | CCCC[C@H](NC(C)=O)C(=O)N[C@H]1CSSC[C@@H](C(=O)N[C@@H](C(=O)N2CCC[C@@H]2C(N)=O)C(C)C)NC(=O)[C@H](Cc2c[nH]c3ccccc23)NC(=O)[C@H](CCCNC(=N)N)NC(=O)[C@@H](Cc2ccc3ccccc3c2)NC(=O)[C@@H]2CCCN2C1=O |
| 32 | 0.12 |  |  | CCCC[C@H](NC(C)=O)C(=O)N[C@H]1CC(=O)NCCCC[C@@H](C(=O)N[C@@H](C(=O)N2CCC[C@@H]2C(=O)O)C(C)C)NC(=O)[C@H](Cc2c[nH]c3ccccc23)NC(=O)[C@H](CCCNC(=N)N)NC(=O)[C@@H](Cc2ccc3ccccc3c2)NC(=O)[C@@H]2CCCN2C1=O |
| 120 |  | 14 | 100 | CCCC[C@H](NC(C)=O)C(=O)N[C@H]1CC(=O)NCCCC[C@@H](C(=O)N[C@@H](C(N)=O)C(C)C)NC(=O)[C@H](Cc2c[nH]c3ccccc23)NC(=O)[C@H](CCCNC(=N)N)NC(=O)[C@@H](Cc2ccc3ccccc3c2)NC(=O)[C@@H]2CCCN2C1=O |
| 3 |  | 1.77 | 46 | CCCC[C@H](NC(C)=O)C(=O)N[C@H]1CC(=O)NCCCC[C@@H](C(=O)N[C@H](C(N)=O)C(C)C)NC(=O)[C@H](Cc2c[nH]c3ccccc23)NC(=O)[C@H](CCCNC(=N)N)NC(=O)[C@@H](Cc2ccc3ccccc3c2)NC(=O)[C@@H]2CCCN2C1=O |
